Experiment [1] has as its target T1, murine M1 muscarinic acetylcholine receptor (Rattus norvegicus, UniProt P08482). To be noted: read-out: IC50, IP-One Assay.
Experiment [2] deals with murine M1 muscarinic acetylcholine receptor (Mus musculus, UniProt P12657). The note with it: read-out: IC50, Calcium Assay.
Experiment [3] has as its target T1, murine M1 muscarinic acetylcholine receptor. As to the kind of experiment: cell-based. The note with it: IC50, IP-One Assay.

Sequences of proteins named here, by UniProt entry; tags and fusion partners are left off. A change or cut given only in a name is not applied to a line headed by its entry.
UniProt P08482: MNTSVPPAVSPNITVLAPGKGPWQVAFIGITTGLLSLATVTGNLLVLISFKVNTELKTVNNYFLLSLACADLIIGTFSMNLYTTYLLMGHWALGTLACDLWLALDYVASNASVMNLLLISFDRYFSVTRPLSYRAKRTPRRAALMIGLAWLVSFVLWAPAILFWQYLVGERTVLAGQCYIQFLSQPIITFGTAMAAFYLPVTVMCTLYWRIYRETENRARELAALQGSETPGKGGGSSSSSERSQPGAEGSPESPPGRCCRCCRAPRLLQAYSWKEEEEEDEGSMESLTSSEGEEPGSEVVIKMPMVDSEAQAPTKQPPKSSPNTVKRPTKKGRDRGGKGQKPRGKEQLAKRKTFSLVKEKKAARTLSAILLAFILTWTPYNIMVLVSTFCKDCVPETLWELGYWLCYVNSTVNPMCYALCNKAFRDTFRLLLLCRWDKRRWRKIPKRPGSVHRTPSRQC
UniProt P12657: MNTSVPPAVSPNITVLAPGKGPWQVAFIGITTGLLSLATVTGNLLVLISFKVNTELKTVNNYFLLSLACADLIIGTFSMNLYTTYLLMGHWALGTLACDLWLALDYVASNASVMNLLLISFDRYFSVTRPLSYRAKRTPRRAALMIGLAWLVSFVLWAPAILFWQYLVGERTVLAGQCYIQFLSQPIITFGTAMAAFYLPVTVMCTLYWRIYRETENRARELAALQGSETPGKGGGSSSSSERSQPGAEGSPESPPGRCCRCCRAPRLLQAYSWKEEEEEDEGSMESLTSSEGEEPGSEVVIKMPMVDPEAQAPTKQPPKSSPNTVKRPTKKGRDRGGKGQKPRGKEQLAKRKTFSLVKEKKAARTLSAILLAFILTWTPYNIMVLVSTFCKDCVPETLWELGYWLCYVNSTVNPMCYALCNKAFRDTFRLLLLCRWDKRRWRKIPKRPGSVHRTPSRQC

Where two headings read alike, the source gives them in different places.

The IC50 is the concentration needed to halve the response being measured. On to (-)-Scopolamine methyl nitrate, for which the IC50 came out at 1 nM in experiment [1] and 12 nM in experiment [2].

In turn, `CC(C)[N+]1(C)[C@@H]2CC[C@H]1C[C@@H](OC(=O)C(CO)c1ccccc1)C2` (stereo partly drawn) [Ipratropium bromide] showed an IC50 in experiment [3] of 4 nM.

Source of the values: article PMC2774619 (Current Chemical Genomics, 2008).
